## Antibody variant affinities, Ab-14 heavy chain, assay 1

Target peptide (SARS-CoV-2 spike, HR2 region): PDVDLGDISGINAS

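The parent was found by panning a naive human phage display library on the peptide. Library AAYL49 holds single substitutions and randomly drawn double and triple substitutions in the CDRs. The assay is AlphaSeq: two haploid yeast populations carry antibody and antigen on their surface. Binding brings cells together so that they mate, and sequencing counts the barcode pairs among the diploids. The ratio of observed to expected reads was calibrated, replicate by replicate, on BCL2-family standards whose Kd was known from biolayer interferometry. There are three technical replicates.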

Each scFv is VH, a 15-residue (Gly4Ser)3 linker, VL, as in the parent Ab-14, and differs from it in the CDRs of the heavy chain only.
VH: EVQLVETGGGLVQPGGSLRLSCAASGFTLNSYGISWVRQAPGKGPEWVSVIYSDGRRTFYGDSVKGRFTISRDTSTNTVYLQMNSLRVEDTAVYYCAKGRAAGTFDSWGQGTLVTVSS
VL: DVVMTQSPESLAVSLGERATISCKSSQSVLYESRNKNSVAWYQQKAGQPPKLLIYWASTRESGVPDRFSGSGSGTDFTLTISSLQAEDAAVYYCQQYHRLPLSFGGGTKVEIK

The whole VH of each variant is written out. Every variant below is changed at F27 of the VH (sequential numbering). Scale: log10 of Kd in nM, estimated from mating counts; low values are strong binders. Where no diploid with the target was found in that replicate, the entry reads "ND": below detection, most likely a poor binder, though not proof of it.

* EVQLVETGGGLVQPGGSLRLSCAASGLTLNSYGIPWVRQAPGKGPEWVSVIYSDGRRTFYGDSVKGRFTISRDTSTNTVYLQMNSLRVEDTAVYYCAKGRNAGTFDSWGQGTLVTVSS -> ND, ND, ND
* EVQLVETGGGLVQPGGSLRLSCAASGDTLNSYGNSWVRQAPGKGPEWVSVIYSDGRRTFYGDSVKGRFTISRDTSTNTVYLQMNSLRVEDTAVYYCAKGRAAMTFDSWGQGTLVTVSS -> ND, ND, ND
* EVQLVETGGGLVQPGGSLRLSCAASGKTLNSYPISWVRQAPGKGPEWVSVIYSDGRRTFYGDSVKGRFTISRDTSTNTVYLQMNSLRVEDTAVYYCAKGRAAGTFDSWGQGTLVTVSS -> ND, ND, ND
* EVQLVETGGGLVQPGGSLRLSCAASGPTLNSYGISWVRQAPGKGPEWVSVIRSDGRRTFYGDSVKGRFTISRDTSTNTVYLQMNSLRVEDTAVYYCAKGRAAGTFMSWGQGTLVTVSS -> 2.60, ND, ND
* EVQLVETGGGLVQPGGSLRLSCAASGDTLNSQGISWVRQAPGKGPEWVSVIYSDGRRTFYGDSVKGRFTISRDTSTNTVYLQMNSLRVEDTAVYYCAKGRAAGTFDEWGQGTLVTVSS -> 1.14, 1.18, 1.37
* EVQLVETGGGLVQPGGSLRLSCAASGDFLNSYGISWVRQAPGKGPEWVSVIYSDGRRTFYGDSVKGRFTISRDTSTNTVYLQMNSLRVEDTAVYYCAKGRAAGTFDSWGQGTLVTVSS -> 1.18, 1.35, 1.35
* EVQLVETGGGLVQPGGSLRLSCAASGWTLNSYGISWVRQAPGKGPEWVSVIYSDGRRTFYGDSVKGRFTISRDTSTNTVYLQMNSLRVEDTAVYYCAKMRANGTFDSWGQGTLVTVSS -> ND, ND, ND
* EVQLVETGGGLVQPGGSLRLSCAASGKTLNSYGISWVRQAPGKGPEWVSVTYSDGRRTFYGDSVGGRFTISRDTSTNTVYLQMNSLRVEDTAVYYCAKGRAAGTFDSWGQGTLVTVSS -> ND, ND, ND
* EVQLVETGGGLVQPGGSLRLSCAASGNTLNSYGISWVRQAPGKGPEWVSVIYSDGRRTFYGDSVPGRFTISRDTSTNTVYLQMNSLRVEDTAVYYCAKGRAAGTIDSWGQGTLVTVSS -> ND, 3.67, ND
* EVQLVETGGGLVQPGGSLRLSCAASGITLNSYGISWVRQAPGKGPEWVSVIYSDGRYTFYGDSLKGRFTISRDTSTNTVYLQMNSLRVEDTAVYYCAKGRAAGTFDSWGQGTLVTVSS -> 3.98, 3.67, ND
* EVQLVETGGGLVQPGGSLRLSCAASGATCNSYGISWVRQAPGKGPEWVSVIYSDGRFTFYGDSVKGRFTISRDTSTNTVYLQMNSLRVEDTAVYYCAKGRAAGTFDSWGQGTLVTVSS -> ND, ND, 4.16
* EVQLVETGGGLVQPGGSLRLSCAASGHTLNSYGISWVRQAPGKGPEWVSVIKSDGRRTFYGLSVKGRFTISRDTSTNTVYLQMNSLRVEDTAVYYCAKGRAAGTFDSWGQGTLVTVSS -> ND, ND, ND
* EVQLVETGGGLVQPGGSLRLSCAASGDTLNSYGISWVRQAPGKGPEWVSVIYSDGRRTFYGASVKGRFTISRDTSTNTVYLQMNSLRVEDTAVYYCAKGRAAGTFDSWGQGTLVTVSS -> 1.72, 1.57, 1.71
* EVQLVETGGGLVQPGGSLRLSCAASGDTLNSYGISWVRQAPGKGPEWVSVIYSDGRRTFYGDSVKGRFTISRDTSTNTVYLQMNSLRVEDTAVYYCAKGCAAGTFDSWGQGTLVTVSS -> 0.81, 0.78, 0.86
* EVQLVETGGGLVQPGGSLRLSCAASGATLNSYGISWVRQAPGKGPEWVSVIYSDGRRTFLGCSVKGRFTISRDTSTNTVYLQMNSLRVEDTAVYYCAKGRAAGTFDSWGQGTLVTVSS -> ND, ND, ND
* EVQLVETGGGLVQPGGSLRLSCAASGWTLNSYGISWVRQAPGKGPEWVSVIYSDYRRTFYHDSVKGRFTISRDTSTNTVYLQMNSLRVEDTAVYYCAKGRAAGTFDSWGQGTLVTVSS -> 3.41, 3.83, ND
* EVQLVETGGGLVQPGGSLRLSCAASGHTLNSYGISWVRQAPGKGPEWVSVIYSDGRRTFYGDSVKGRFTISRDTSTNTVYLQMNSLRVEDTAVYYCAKGRAAGTFDSWGQGTLVTVSS -> 1.65, 1.61, 1.74
* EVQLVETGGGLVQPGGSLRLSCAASGSTLNSYKISWVRQAPGKGPEWVSVIYSDGRRTDYGDSVKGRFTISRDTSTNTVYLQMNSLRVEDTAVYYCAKGRAAGTFDSWGQGTLVTVSS -> 3.97, 3.17, 5.30
* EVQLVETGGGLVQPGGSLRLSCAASGMTVNSYGISWVRQAPGKGPEWVSVIYSDGRRTFYGDSVKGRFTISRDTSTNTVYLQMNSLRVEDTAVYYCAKGRAAGTFDSWGQGTLVTVSS -> 2.61, 3.24, 5.49

Top 2 of the variants detected in all replicates, tightest first:

| VH | log10 Kd, replicates |
|---|---|
| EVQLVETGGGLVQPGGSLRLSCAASGDTLNSYGISWVRQAPGKGPEWVSVIYSDGRRTFYGDSVKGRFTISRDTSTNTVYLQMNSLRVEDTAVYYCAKGCAAGTFDSWGQGTLVTVSS | 0.81, 0.78, 0.86 |
| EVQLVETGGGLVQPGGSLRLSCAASGDTLNSQGISWVRQAPGKGPEWVSVIYSDGRRTFYGDSVKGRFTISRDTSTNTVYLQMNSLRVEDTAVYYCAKGRAAGTFDEWGQGTLVTVSS | 1.14, 1.18, 1.37 |

For reference, the parent read 0.65 as the reference entry and 4.11 (one replicate of three) as a member of this library. Background: pairings of library AAYL49 with three empty control strains gave a value in 15% of cases (median 4.06, 5th percentile 2.83). Values in that range, when seen in few replicates, are hard to tell from nonspecific mating.

Source: Engelhart et al. 2022 (doi:10.1038/s41597-022-01779-4), MIT Lincoln Laboratory and A-Alpha Bio; data file from the FLAb repository.